# AlphaSeq binding of Ab-91 heavy chain variants to a spike HR2 peptide

The measurements come from Engelhart et al. 2022 (doi:10.1038/s41597-022-01779-4) through the FLAb antibody collection.

Antigen: PDVDLGDISGINAS, a 14-residue peptide of the SARS-CoV-2 spike HR2 region.

The variants keep the light chain, the linker and the frameworks of Ab-91 (scFv order VL, a 15-residue (Gly4Ser)3 linker, VH).
VL: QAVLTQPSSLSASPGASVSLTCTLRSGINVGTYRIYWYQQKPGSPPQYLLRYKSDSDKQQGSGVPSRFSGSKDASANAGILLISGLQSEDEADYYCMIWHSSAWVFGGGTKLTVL
VH: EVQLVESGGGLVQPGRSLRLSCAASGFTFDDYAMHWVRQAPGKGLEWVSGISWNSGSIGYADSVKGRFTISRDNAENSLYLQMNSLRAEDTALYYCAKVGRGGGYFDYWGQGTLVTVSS

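The parent was found by panning a naive human phage display library on the peptide. The library (AAYL51) carries one to three amino acid substitutions per variant, with no insertions or deletions. AlphaSeq pools MATa yeast showing the antibodies with MATalpha yeast showing the peptide. Mating (16 h, 30 °C) was followed by selection of diploids and sequencing of their barcodes. The ratio of observed to expected reads was calibrated, replicate by replicate, on BCL2-family standards whose Kd was known from biolayer interferometry. There are three technical replicates.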

Positions count from residue 1 of the parent VH; F29L puts L in place of F.
These are single substitutions, in order of position.
Values are log10 of the apparent Kd in nM; lower means stronger binding.
Replicates are averaged; those with no signal do not enter the mean.
An entry "nd" has no value in the source: the pair was not observed among the diploids in any replicate. This suggests poor binding but is not conclusive.

| # | changes | log10 Kd (nM), mean | detected |
|---|---|---|---|
| 1 | F29L | nd | 0/3 |
| 2 | F29D | 5.12 | 1/3 |
| 3 | D30Y | 3.23 | 3/3 |
| 4 | D30G | 3.71 | 1/3 |
| 5 | D30M | 1.31 | 3/3 |
| 6 | D30H | 0.58 | 3/3 |
| 7 | D30K | 1.81 | 3/3 |
| 8 | D30Q | 4.80 | 1/3 |
| 9 | D30S | 0.98 | 3/3 |
| 10 | D30E | 1.85 | 3/3 |
| 11 | D30W | 2.23 | 3/3 |
| 12 | D30N | nd | 0/3 |
| 13 | D30F | 1.99 | 3/3 |
| 14 | D30R | 1.31 | 3/3 |
| 15 | D30C | 5.71 | 2/3 |
| 16 | D30T | 2.06 | 3/3 |
| 17 | D30I | 2.31 | 3/3 |
| 18 | D30L | 3.58 | 3/3 |
| 19 | D31S | 1.14 | 3/3 |
| 20 | D31V | 1.45 | 3/3 |
| 21 | D31H | 1.05 | 3/3 |
| 22 | D31L | 0.24 | 3/3 |
| 23 | D31T | 2.18 | 3/3 |
| 24 | D31N | 1.00 | 3/3 |
| 25 | D31W | 0.77 | 3/3 |
| 26 | D31M | 0.59 | 3/3 |
| 27 | D31Q | nd | 0/3 |
| 28 | D31R | 0.50 | 3/3 |
| 29 | D31I | 1.66 | 3/3 |
| 30 | D31K | 1.20 | 3/3 |
| 31 | D31F | 0.54 | 3/3 |
| 32 | Y32D | nd | 0/3 |
| 33 | Y32K | nd | 0/3 |
| 34 | Y32W | 4.40 | 1/3 |
| 35 | Y32I | 4.57 | 2/3 |
| 36 | Y32H | 1.25 | 3/3 |
| 37 | Y32Q | 5.38 | 2/3 |
| 38 | Y32G | nd | 0/3 |
| 39 | Y32C | nd | 0/3 |
| 40 | Y32P | nd | 0/3 |
| 41 | Y32S | 4.82 | 1/3 |
| 42 | Y32F | 2.17 | 1/3 |
| 43 | Y32A | 2.50 | 3/3 |
| 44 | Y32L | 6.35 | 1/3 |
| 45 | A33R | 4.70 | 1/3 |
| 46 | A33F | 3.90 | 1/3 |
| 47 | A33G | 4.87 | 2/3 |
| 48 | A33I | 3.98 | 1/3 |
| 49 | A33N | 3.36 | 1/3 |
| 50 | A33T | 4.52 | 2/3 |
| 51 | A33K | 5.92 | 1/3 |
| 52 | A33D | 4.79 | 2/3 |
| 53 | A33Y | nd | 0/3 |
| 54 | A33C | 4.74 | 2/3 |
| 55 | A33M | 4.90 | 1/3 |
| 56 | A33H | nd | 0/3 |
| 57 | A33E | nd | 0/3 |
| 58 | A33W | nd | 0/3 |
| 59 | A33S | 1.10 | 3/3 |
| 60 | A33P | 1.66 | 3/3 |
| 61 | M34Y | 5.33 | 2/3 |
| 62 | M34D | nd | 0/3 |
| 63 | M34R | 5.18 | 2/3 |
| 64 | M34L | 3.78 | 3/3 |
| 65 | M34T | nd | 0/3 |
| 66 | M34V | nd | 0/3 |
| 67 | M34H | nd | 0/3 |
| 68 | M34G | 4.82 | 3/3 |
| 69 | M34S | 4.53 | 1/3 |
| 70 | M34P | nd | 0/3 |
| 71 | M34N | nd | 0/3 |
| 72 | M34E | nd | 0/3 |
| 73 | M34I | nd | 0/3 |
| 74 | H35M | 4.71 | 2/3 |
| 75 | H35W | 5.12 | 2/3 |
| 76 | H35Y | nd | 0/3 |
| 77 | H35I | 4.73 | 1/3 |
| 78 | H35V | 3.30 | 1/3 |
| 79 | H35G | nd | 0/3 |

Repeated from above, the 7 best binders with a signal in all replicates:

| changes | log10 Kd (nM), mean | detected |
|---|---|---|
| D31L | 0.24 | 3/3 |
| D31R | 0.50 | 3/3 |
| D31F | 0.54 | 3/3 |
| D30H | 0.58 | 3/3 |
| D31M | 0.59 | 3/3 |
| D31W | 0.77 | 3/3 |
| D30S | 0.98 | 3/3 |

Three control strains display no target. For library AAYL51, 21% of the pairings with them gave a signal, with a median of 4.54 and one signal in twenty below 3.26, so weak values seen in few replicates may be background.